{"sequences": {"note": "Sequences of proteins named here, by UniProt entry; tags and fusion partners are left off. Residues count along the entry.", "UniProt P06213, 28-758 limits assumed": "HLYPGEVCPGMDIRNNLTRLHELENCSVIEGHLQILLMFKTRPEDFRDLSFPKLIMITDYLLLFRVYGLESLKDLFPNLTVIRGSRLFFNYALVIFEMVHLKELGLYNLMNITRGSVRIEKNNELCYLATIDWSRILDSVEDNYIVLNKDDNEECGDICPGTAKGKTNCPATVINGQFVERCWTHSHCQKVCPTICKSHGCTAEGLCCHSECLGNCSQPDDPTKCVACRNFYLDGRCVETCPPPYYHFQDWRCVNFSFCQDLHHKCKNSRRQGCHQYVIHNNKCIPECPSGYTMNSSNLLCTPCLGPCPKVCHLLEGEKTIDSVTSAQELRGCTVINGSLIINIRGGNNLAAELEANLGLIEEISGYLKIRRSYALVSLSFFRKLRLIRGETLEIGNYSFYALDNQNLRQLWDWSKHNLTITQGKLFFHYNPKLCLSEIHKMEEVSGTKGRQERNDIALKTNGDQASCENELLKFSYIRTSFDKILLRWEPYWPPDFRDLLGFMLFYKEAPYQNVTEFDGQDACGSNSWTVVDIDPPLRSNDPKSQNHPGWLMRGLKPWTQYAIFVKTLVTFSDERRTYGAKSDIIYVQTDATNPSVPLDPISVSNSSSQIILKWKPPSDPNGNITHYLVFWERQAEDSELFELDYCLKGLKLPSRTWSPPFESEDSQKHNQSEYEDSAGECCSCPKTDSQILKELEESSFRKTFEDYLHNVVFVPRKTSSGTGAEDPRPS", "UniProt P06213, 763-1382 limits assumed": "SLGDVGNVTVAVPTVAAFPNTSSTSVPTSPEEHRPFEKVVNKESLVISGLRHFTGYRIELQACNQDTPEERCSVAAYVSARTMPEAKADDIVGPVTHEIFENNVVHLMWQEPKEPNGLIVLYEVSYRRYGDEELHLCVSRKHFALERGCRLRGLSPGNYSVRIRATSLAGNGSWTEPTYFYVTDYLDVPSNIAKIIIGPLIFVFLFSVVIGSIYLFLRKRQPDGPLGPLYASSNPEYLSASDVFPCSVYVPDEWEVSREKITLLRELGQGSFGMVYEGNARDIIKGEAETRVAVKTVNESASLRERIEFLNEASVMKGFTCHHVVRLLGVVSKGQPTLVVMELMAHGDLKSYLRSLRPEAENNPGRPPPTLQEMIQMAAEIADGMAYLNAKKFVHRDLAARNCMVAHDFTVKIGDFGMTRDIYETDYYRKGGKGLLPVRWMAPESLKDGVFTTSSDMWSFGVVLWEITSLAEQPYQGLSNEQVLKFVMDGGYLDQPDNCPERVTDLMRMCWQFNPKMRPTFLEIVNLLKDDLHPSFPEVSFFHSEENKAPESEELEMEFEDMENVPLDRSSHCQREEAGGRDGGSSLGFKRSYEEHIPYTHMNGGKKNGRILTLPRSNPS"}, "source": "paper PMC11952234", "about": "“Functional profiling of synthetic camel milk-derived peptides with implication in glucose transport and diabetes” (PLOS One, 2025)", "key": {"[1]": {"tested_on": "insulin receptor (IR); insulin-induced IR-Rluc/IRS1-YFP BRET in HEK293 cells", "assay": "BRET assay of IR activation, peptides combined with insulin", "format": "cell-based, human", "experimental": "(§1) HepG2 and HEK293 cells were maintained at 37°C, 5% CO2 in complete RPMI and Dulbecco’s modified Eagle’s medium (DMEM), respectively, containing 0.3 mg/ml glutamine, 100 IU/ml penicillin, and 100 µg/ml streptomycin) supplemented with 10% fetal calf serum (Gibco, Carlsbad, CA, USA). The transient transfection in HEK293 cells was carried out in 75 cm flask containing 10^7 cells using Lipofectamine 2000 and 5 µg of IR-Rluc and 5 µg of IRS1-YFP (for BRET and phosphorylation experiments) as previously described. All assays were performed 48 hours post-transfection.\n(§2) BRET technology was used for IR activation and its interaction with IRS1 as previously described. […] Following treatments, 10 μl of Coelenterazine h was added to a final concentration of 5 µ M and BRET measurements were carried out using the Tristar 2 multi-label plate reader (Berthold, Germany), allowing luminescence recording and signal integration at 480 nm and 540 nm.\nFor BRET, the data were normalized by taking as 100% of the maximal insulin-induced BRET signal in the vehicle and analyzed using GraphPad Prism software (San Diego, CA, USA). Statistical analyses were performed statistical significance between the different treatments and conditions as indicated in the figures and tables and their captions. […] The significance is indicated in the figures by stars (****p-value < 0.0001, ***p-value < 0.001, ** p-value < 0.01, * p-value < 0.05), and the absence of stars means non-significant (p-value > 0.05). However, the two-way ANOVA was used for multiple comparisons to determine the statistical significance between the different peptides when compared to each other in the different assays as described in the tables. In this case, the different letters indicate statistically significant effects (p-value < 0.05), while the same letters indicate no significant difference between the different treatments compared to each other."}, "[2]": {"target": "T1, insulin receptor (IR); interaction of IR-Rluc with IRS1-YFP in HEK293 cells (Homo sapiens, UniProt P06213)", "T1 construct": "expressed in transfected cells; host or cells: HEK293 cells, transient co-transfection; plasmids provided by Dr. Tarik Issad (Cochin Institute, Paris)", "assay": "BRET assay of IR activation (IR-Rluc/IRS1-YFP), single treatment, dose-response", "format": "cell-based", "conditions": "HEK293, 1 hour, 37°C, minimal data set for Figure 1, average", "experimental": "as §1, §2\nStatistical analyses were performed statistical significance between the different treatments and conditions as indicated in the figures and tables and their captions. […] The significance is indicated in the figures by stars (****p-value < 0.0001, ***p-value < 0.001, ** p-value < 0.01, * p-value < 0.05), and the absence of stars means non-significant (p-value > 0.05). However, the two-way ANOVA was used for multiple comparisons to determine the statistical significance between the different peptides when compared to each other in the different assays as described in the tables."}, "HepG2 cells": {"tested_on": "HepG2 cells", "assay": "Glucose uptake assay (Glucose Uptake-Glo) in HepG2 cells", "format": "cell-based, human", "conditions": "1 hour, 37°C", "experimental": "Glucose uptake in HepG2 cells was carried out using Glucose Uptake-Glo Assay (Promega). For this, cells seeded in a 96-well white plate (50,000 cells/well) were first washed with PBS and starved in phenol red-, glucose-, and serum-free medium (Dulbecco’s modified Eagle’s medium containing 0.01 mM HEPES, 0.3 mg/ml glutamine, 100 IU/ml penicillin, and 100 µg/ml streptomycin). […] The treatment was removed, and the cells were washed once with PBS and then incubated with 50 μL/well of freshly prepared 2-deoxyglucose (500 μM) for 10 minutes at room temperature. The uptake process was stopped and neutralized, followed by the addition of 50 μl/well of 2-deoxyglucose-6-phosphate (2DG6P) detection reagent and incubation for 15-60 minutes at room temperature. The glucose-6-phosphate dehydrogenase (G6PDH) oxidizes 2DG6P to 6-phosphodeoxygluconate (6PDG) and reduces NADP + to NADPH. The reductase uses NADPH to convert the proluciferin to luciferin, which is then used by Ultra-Glo™ recombinant luciferase to produce luminescence. This luminescence, proportional to the amount of 2-deoxyglucose transported inside the cells upon treatment, was then measured using a 0.3–1 second integration on GloMax® Discover luminometer according to Glucose Uptake-Glo™ protocol."}}, "note": "Several values for one entry are separate records, joined by “and”; a condition that tells them apart may be missing. Equal entries are not always repeated. Where two headings read alike, the source gives them in different places. Marks after values point to notes of the source that are not given here.", "data": [{"smiles": "CC(C)[C@H](N)C(=O)N1CCC[C@H]1C(=O)N[C@H](C(=O)O)C(C)C", "note": "[Peptide P8, VPV]", "values": [{"measurement": "insulin-induced BRET, % of insulin's response in the vehicle, Average", "setting": "[1]; Average of Experiments 1-7, 1 μM insulin + 0.1 mg/ml peptide, HEK293, minimal data set for Figure 2", "value": 149.0}, {"measurement": "insulin-induced BRET, % of insulin's response in the vehicle", "setting": "[1]; Experiment 3, 1 μM insulin + 0.1 mg/ml peptide, HEK293, minimal data set for Figure 2", "value": 166.4}, {"measurement": "insulin-induced BRET, % of insulin's response in the vehicle", "setting": "[1]; Experiment 4, 1 μM insulin + 0.1 mg/ml peptide, HEK293, minimal data set for Figure 2", "value": 149.5}, {"measurement": "insulin-induced BRET, % of insulin's response in the vehicle", "setting": "[1]; Experiment 5, 1 μM insulin + 0.1 mg/ml peptide, HEK293, minimal data set for Figure 2", "value": 127.2}, {"measurement": "insulin-induced BRET, % of insulin's response in the vehicle", "setting": "[1]; Experiment 6, 1 μM insulin + 0.1 mg/ml peptide, HEK293, minimal data set for Figure 2", "value": 152.7}, {"measurement": "% of maximal BRET (insulin-induced)", "setting": "[1]; HEK293 cells, 1 μM insulin + 0.1 mg/ml peptide, 1 hour, 37°C, % of insulin's response in the vehicle taken as 100%, mean ± SD of five to seven independent experiments in triplicate", "value": "121 ± 14^d %"}, {"measurement": "profile on insulin-dependent BRET response in combined treatment (in words)", "setting": "[1]; HEK293 cells, 0.1 mg/ml peptide + 1 μM insulin, compared to insulin alone (Vehicle)", "value": "potentiating"}, {"measurement": "Emax", "setting": "[2]; HEK293, read-out: BRET, % of the maximal response of insulin, Average, peptide 0.001 mg/ml", "value": 10.7, "unit": "%"}, {"measurement": "Emax", "setting": "[2]; HEK293, read-out: BRET, % of the maximal response of insulin, Average, peptide 0.005 mg/ml", "value": 19.9, "unit": "%"}, {"measurement": "Emax", "setting": "[2]; HEK293, read-out: BRET, % of the maximal response of insulin, Average, peptide 0.01 mg/ml", "value": 31.8, "unit": "%"}, {"measurement": "Emax", "setting": "[2]; HEK293, read-out: BRET, % of the maximal response of insulin, Average, peptide 0.05 mg/ml", "value": 34.4, "unit": "%"}, {"measurement": "Emax", "setting": "[2]; HEK293, read-out: BRET, % of the maximal response of insulin, Average, peptide 0.1 mg/ml", "value": 39.9, "unit": "%"}, {"measurement": "Emax", "setting": "[2]; HEK293, read-out: BRET, % of the maximal response of insulin, Average, peptide 0.5 mg/ml", "value": 39, "unit": "%"}, {"measurement": "Emax", "setting": "[2]; HEK293, read-out: BRET, % of the maximal response of insulin, Average, peptide 1 mg/ml", "value": 31.6, "unit": "%"}, {"measurement": "glucose uptake, specific luminescence signal, Average", "setting": "HepG2 cells; Average of Experiments 1-5, HepG2, 0.1 mg/ml peptide or 1 μM insulin, minimal data set for Figure 5", "value": 3788600}, {"measurement": "% of glucose uptake", "setting": "HepG2 cells; HepG2 cells, 0.1 mg/ml peptide or 1 μM insulin, % of insulin's response taken as 100%, mean ± SD of five independent experiments in triplicate", "value": "135 – 150% and 150 ± 18^e %"}]}]}
